Assay results reported in ChEMBL document CHEMBL1649552 (2009).

Assays:
Type in all cases: functional
Klebsiella oxytoca = assay: Antibacterial activity against Klebsiella oxytoca by CLSI M100-S17 method
Acinetobacter baumannii = assay: Antibacterial activity against Acinetobacter baumannii by CLSI M100-S17 method
[1] = system: Stenotrophomonas maltophilia; assay: Antibacterial activity against Stenotrophomonas maltophilia by CLSI M100-S17 method
Serratia marcescens = assay: Antibacterial activity against Serratia marcescens by CLSI M100-S17 method
Staphylococcus aureus [2] = assay: Antibacterial activity against methicillin-resistant Staphylococcus aureus by CLSI M100-S17 method
Enterobacter cloacae = assay: Antibacterial activity against Enterobacter cloacae by CLSI M100-S17 method
[3] = system: Staphylococcus epidermidis; assay: Antibacterial activity against methicillin-susceptible Staphylococcus epidermidis by CLSI M100-S17 method
Staphylococcus aureus [4] = assay: Antibacterial activity against methicillin-susceptible Staphylococcus aureus by CLSI M100-S17 method
Pseudomonas aeruginosa = assay: Antibacterial activity against Pseudomonas aeruginosa by CLSI M100-S17 method
Klebsiella pneumoniae = assay: Antibacterial activity against Klebsiella pneumoniae by CLSI M100-S17 method
Moraxella catarrhalis = assay: Antibacterial activity against Moraxella catarrhalis by CLSI M100-S17 method
[5] = system: Staphylococcus epidermidis; assay: Antibacterial activity against methicillin-resistant Staphylococcus epidermidis by CLSI M100-S17 method
Escherichia coli = assay: Antibacterial activity against Escherichia coli by CLSI M100-S17 method
Proteus mirabilis = assay: Antibacterial activity against Proteus mirabilis by CLSI M100-S17 method

## GENTAMICIN
Klebsiella oxytoca
  MIC: 0.5 µg/mL
  MIC50: < 0.5 µg/mL
  MIC90: < 0.5 µg/mL
Acinetobacter baumannii
  MIC: 0.5 µg/mL
  MIC50: < 0.5 µg/mL
[1]
  MIC: 0.5 µg/mL
Serratia marcescens
  MIC: 0.5 µg/mL
  MIC50: < 0.5 µg/mL
Staphylococcus aureus [2]
  MIC: 0.5 µg/mL
  MIC50: < 0.5 µg/mL
Enterobacter cloacae
  MIC: 0.5 µg/mL
  MIC50: < 0.5 µg/mL
[3]
  MIC50: < 0.5 µg/mL
Staphylococcus aureus [4]
  MIC50: < 0.5 µg/mL
Pseudomonas aeruginosa
  MIC: 0.5 µg/mL
Klebsiella pneumoniae
  MIC: 0.5 µg/mL
  MIC50: < 0.5 µg/mL
  MIC90: < 0.5 µg/mL
Moraxella catarrhalis
  MIC: < 0.5 µg/mL
  MIC50: < 0.5 µg/mL
  MIC90: < 0.5 µg/mL
[5]
  MIC: 0.5 µg/mL
Escherichia coli
  MIC: 0.5 µg/mL
  MIC50: < 0.5 µg/mL
Proteus mirabilis
  MIC: 0.5 µg/mL
